Data: ChEMBL document CHEMBL2203189, “Synthesis and pharmacology of 1-alkyl-3-(1-naphthoyl)indoles: steric and electronic effects of 4- and 8-halogenated naphthoyl substituents” (Bioorg Med Chem, 2012)

What was measured:
Format in all cases: functional
Mus musculus [1] = experiment: Antinociceptive activity in iv dosed Harlan ICR mouse assessed as latency to heat-induced tail flicking at 20 mins
Outline: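 Male ICR mice, 18–25 g, n = 6 per dose. Multiple doses iv by tail vein in emulphor–ethanol–saline 1:1:18. Tail-flick latency at 20 min, 10 s cutoff, expressed as %MPE.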

Mus musculus [2] = experiment: Induction of catalepsy in iv dosed Harlan ICR mouse at 40 mins measured for 5 mins by ring immobility test
Mus musculus [3] = experiment: Hypothermic activity in iv dosed Harlan ICR mouse assessed as change in rectal temperature at 30 mins; details: 0.5 h

**Q.** With `CCCCCc1cc(O)c2c(c1)OC(C)(C)[C@@H]1CCC(C)=C[C@@H]21` [DRONABINOL] as the molecule, how does the ED50 (Mus musculus [1]) read?
**A.** Its ED50 is 4.5 µmol/kg.

**Q.** What about the ED50 (Mus musculus [2]) of the same molecule?
**A.** Its ED50 is 4.8 µmol/kg.

**Q.** And the ED50 (Mus musculus [3])?
**A.** Its ED50 is 4.5 µmol/kg.
